This experiment addresses Dual specificity protein phosphatase 6 (Homo sapiens) (UniProt Q16828). The experiment is described as follows: DUSP6 inhibitors restoring Erk phosphorylation by chemical complementation, primary imaging in DUSP6-transfected HeLa (AID 609).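 Note: phospho-Erk level distribution per well compared with pooled transfected vehicle control wells.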 The note with it: HeLa MKP-3 transfected, phospho-Erk imaging KS statistic; at 10 µM; active compounds read high; cells stimulated with TPA for 15 min.

Protein sequences, listed by entry. Tags and fused reporters are not part of them. Lines headed by an entry give the natural chain unless they say otherwise; changes in a name come on top.
UniProt Q16828: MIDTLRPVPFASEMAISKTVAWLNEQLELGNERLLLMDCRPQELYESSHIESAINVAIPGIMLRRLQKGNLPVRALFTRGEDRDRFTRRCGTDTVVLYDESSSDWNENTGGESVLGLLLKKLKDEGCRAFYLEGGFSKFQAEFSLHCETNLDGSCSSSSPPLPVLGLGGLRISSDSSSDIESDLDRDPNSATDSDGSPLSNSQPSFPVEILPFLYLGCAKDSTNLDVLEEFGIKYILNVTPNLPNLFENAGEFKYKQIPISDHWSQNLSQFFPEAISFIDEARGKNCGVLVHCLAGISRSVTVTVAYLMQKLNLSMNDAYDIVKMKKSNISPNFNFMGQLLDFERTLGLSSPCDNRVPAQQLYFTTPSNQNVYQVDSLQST

Structures are written as SMILES. This is one part of the list. The source made the active and inactive calls.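 Rule for the calls: active = compounds giving at least 50% inhibition in the cell-based MKP-3 phosphatase rescue imaging test; inactive = the rest.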

In general, inhibition refers to the relative decrease from the control value, in per cent. Turning to `Cc1cccc(OCC(=O)OC2CN3CCC2CC3)c1` (configuration not stated), the inhibition is inactive: -4.59%.

For the molecule `Cc1ccc(OCC(=O)OC2CN3CCC2CC3)cc1` (configuration not stated), the inhibition was inactive: -8.76%.

For the origin of these results see PubChem BioAssay.
